Results as given in ChEMBL document CHEMBL2203161 (Bioorg Med Chem, 2012).

Biological target: T1, Probable linoleate 9S-lipoxygenase 5 (Solanum tuberosum, UniProt Q43191)
T1 sequence (Q43191 whole entry): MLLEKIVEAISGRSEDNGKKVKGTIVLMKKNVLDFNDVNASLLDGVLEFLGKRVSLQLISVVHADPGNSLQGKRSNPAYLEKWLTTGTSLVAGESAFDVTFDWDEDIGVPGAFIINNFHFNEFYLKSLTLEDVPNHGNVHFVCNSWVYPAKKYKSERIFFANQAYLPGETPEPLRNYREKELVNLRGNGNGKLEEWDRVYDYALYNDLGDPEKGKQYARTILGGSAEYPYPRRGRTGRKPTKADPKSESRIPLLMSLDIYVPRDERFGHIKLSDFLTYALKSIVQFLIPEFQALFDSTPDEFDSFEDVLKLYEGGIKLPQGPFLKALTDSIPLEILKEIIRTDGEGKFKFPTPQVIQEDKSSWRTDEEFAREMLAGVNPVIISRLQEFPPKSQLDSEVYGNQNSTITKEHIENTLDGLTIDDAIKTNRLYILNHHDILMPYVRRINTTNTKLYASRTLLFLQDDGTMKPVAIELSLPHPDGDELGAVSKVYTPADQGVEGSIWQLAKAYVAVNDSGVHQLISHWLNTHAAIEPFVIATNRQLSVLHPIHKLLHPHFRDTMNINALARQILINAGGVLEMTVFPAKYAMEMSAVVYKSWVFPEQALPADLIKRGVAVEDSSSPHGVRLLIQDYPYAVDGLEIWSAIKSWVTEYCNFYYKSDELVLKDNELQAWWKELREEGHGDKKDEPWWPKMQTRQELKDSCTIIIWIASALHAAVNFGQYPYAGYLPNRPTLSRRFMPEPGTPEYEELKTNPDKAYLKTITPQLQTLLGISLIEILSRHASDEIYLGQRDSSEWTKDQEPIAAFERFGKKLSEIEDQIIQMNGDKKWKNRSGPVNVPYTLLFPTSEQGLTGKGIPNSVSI
Assay: Inhibition of potato 5-lipoxygenase assessed as residual activity preincubated for 10 mins measured by real-time spectrophotometric analysis
Procedure, shortened: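 Single-concentration screen against soybean LOX-1 and potato 5-LOX. Enzyme preincubated 10 min with 50 µM compound. Formation of conjugated diene 13-HPOD from linoleic acid followed spectrophotometrically in real time. Residual activity given as percent of blank without inhibitor. Average of three independent experiments with standard deviations.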

- IC50: 43 µM
Structure (SMILES): CCCCCCCCCCCCCCCc1cccc(O)c1C(=O)O [ANACARDIC ACID]
